## Permeability data for macrocyclic peptides

Collected by the curators of CycPeptMPDB (Li et al. 2023) from Townsend et al. 2020, doi:10.26434/chemrxiv.13335941.v1.

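Lipid, pH, incubation time, direction and concentration are not recorded in the data file. The list need not hold all peptides of the study. Peptides that the database sets to -10, its floor, are left out.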

PAMPA is the parallel artificial membrane permeability assay, which has no cells and reads passive diffusion.
P is given in units of 10^-6 cm/s (from log10 values with two decimals); larger means faster passage.

For CC(C)C[C@H]1NC(=O)C[C@H](Cc2ccccc2)NC(=O)[C@H](Cc2ccccc2)NC(=O)CN(Cc2ccccc2)C(=O)[C@@H]2CCCN2C(=O)[C@@H](CC(C)C)NC1=O the data give PAMPA 3.4 × 10^-6 cm/s.
For CC(C)C[C@@H]1NC(=O)[C@H](CC(C)C)N(C)C(=O)[C@H](C)NC(=O)[C@H](Cc2ccccc2)NC(=O)[C@@H](CC(C)C)NC(=O)[C@H]2CCCN2C1=O the data give PAMPA 3 × 10^-6 cm/s.
For CC(C)C[C@H]1NC(=O)C[C@H](Cc2ccccc2)NC(=O)[C@H](Cc2ccccc2)NC(=O)[C@H](CC(C)C)N(C)C(=O)[C@@H]2CCCN2C(=O)[C@@H](CC(C)C)NC1=O the data give PAMPA 7.4 × 10^-6 cm/s.
For CC(C)C[C@@H]1C(=O)N(Cc2ccccc2)CC(=O)N2CCC[C@H]2C(=O)N[C@H](CC(C)C)C(=O)N[C@@H](Cc2ccccc2)C(=O)N2CCC[C@H]2C(=O)N[C@@H](C)C(=O)N1C the data give PAMPA 1.3 × 10^-6 cm/s.
For CC(C)C[C@@H]1NC(=O)[C@H](C)N(C)C(=O)[C@H]2CCCN2C(=O)[C@H](Cc2ccccc2)NC(=O)CN(Cc2ccccc2)C(=O)[C@@H]2CCCN2C(=O)C[C@H](Cc2ccccc2)NC1=O the data give PAMPA 1.1 × 10^-6 cm/s.
For CC(C)C[C@H]1NC(=O)C[C@H](Cc2ccccc2)NC(=O)[C@H]2CCCN2C(=O)[C@H](Cc2ccccc2)NC(=O)[C@H](CC(C)C)N(C)C(=O)[C@@H]2CCCN2C(=O)C[C@H](Cc2ccccc2)NC1=O the data give PAMPA 2.3 × 10^-6 cm/s.
For CC(C)C[C@@H]1C(=O)N(Cc2ccccc2)CC(=O)N2CCC[C@H]2C(=O)N(C)[C@@H](CC(C)C)C(=O)N[C@@H](Cc2ccccc2)C(=O)N[C@@H](Cc2ccccc2)CC(=O)N1C the data give PAMPA 3.7 × 10^-6 cm/s.
For CC(C)C[C@@H]1C(=O)N[C@@H](Cc2ccccc2)C(=O)N[C@H](C)C(=O)N(C)[C@H](CC(C)C)C(=O)N[C@H](CC(C)C)C(=O)N2CCC[C@@H]2C(=O)N1C the data give PAMPA 3.7 × 10^-6 cm/s.
For CC(C)C[C@@H]1C(=O)N[C@@H](Cc2ccccc2)CC(=O)N2CCC[C@H]2C(=O)N(C)[C@@H](CC(C)C)C(=O)N[C@@H](Cc2ccccc2)C(=O)N2CCC[C@@H]2C(=O)N(C)[C@H](C)C(=O)N1C the data give PAMPA 4.9 × 10^-6 cm/s.
For CC(C)C[C@@H]1C(=O)N[C@H](CC(C)C)C(=O)N2CCC[C@H]2C(=O)N[C@H](CC(C)C)C(=O)N[C@@H](Cc2ccccc2)C(=O)N[C@@H](Cc2ccccc2)CC(=O)N1C the data give PAMPA 6.5 × 10^-6 cm/s.
For CC(C)C[C@@H]1NC(=O)[C@H](C)NC(=O)[C@@H]2CCCN2C(=O)[C@H](Cc2ccccc2)NC(=O)[C@@H](CC(C)C)N(C)C(=O)[C@@H]2CCCN2C(=O)CN(Cc2ccccc2)C1=O the data give PAMPA 1.1 × 10^-6 cm/s.
For CCCN1CC(=O)N[C@H](CC(C)C)C(=O)N(Cc2ccccc2)CC(=O)N2CCC[C@H]2C(=O)N[C@H](CC(C)C)C(=O)N[C@@H](Cc2ccccc2)C(=O)N2CCC[C@@H]2C1=O the data give PAMPA 1.1 × 10^-6 cm/s.
For CC(C)C[C@@H]1C(=O)N2CCC[C@@H]2C(=O)N[C@H](CC(C)C)C(=O)N[C@@H](Cc2ccccc2)C(=O)N(C)[C@@H](C)C(=O)N[C@H](CC(C)C)C(=O)N1C the data give PAMPA 10 × 10^-6 cm/s.
For CC(C)C[C@@H]1NC(=O)[C@@H](C)N(C)C(=O)[C@@H]2CCCN2C(=O)[C@H](Cc2ccccc2)NC(=O)[C@@H](CC(C)C)NC(=O)[C@H]2CCCN2C(=O)[C@@H](CC(C)C)N(C)C1=O the data give PAMPA 3.2 × 10^-6 cm/s.

The first 2 entries again:

The entry for CC(C)C[C@H]1NC(=O)C[C@H](Cc2ccccc2)NC(=O)[C@H](Cc2ccccc2)NC(=O)CN(Cc2ccccc2)C(=O)[C@@H]2CCCN2C(=O)[C@@H](CC(C)C)NC1=O lists PAMPA 3.4 × 10^-6 cm/s.
The entry for CC(C)C[C@@H]1NC(=O)[C@H](CC(C)C)N(C)C(=O)[C@H](C)NC(=O)[C@H](Cc2ccccc2)NC(=O)[C@@H](CC(C)C)NC(=O)[C@H]2CCCN2C1=O lists PAMPA 3 × 10^-6 cm/s.